From patent EP0619818B1, “IMIDAZOYLALKYL SUBSTITUTED WITH A SIX MEMBERED NITROGEN CONTAINING HETEROCYCLIC RING” (SCHERING CORPORATION, priority 1991, dated 1993)

By UniProt entry, the sequences of proteins in these tests, tags left out. Where a name states a change or a piece, a line headed by the entry shows the natural chain unless it says otherwise.
UniProt Q9JI35: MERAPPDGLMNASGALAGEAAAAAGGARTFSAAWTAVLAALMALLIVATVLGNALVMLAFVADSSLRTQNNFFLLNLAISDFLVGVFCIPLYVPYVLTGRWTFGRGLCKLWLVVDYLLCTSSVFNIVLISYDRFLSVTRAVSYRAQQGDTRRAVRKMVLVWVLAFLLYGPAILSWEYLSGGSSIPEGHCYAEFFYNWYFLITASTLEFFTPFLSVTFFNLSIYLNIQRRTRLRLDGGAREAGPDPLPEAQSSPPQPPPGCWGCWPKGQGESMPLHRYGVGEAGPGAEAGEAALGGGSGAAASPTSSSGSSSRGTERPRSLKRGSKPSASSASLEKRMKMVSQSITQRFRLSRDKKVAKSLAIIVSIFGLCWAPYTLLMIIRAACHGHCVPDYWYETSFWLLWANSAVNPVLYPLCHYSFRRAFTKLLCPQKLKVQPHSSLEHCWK

Molecular target: H3 receptors (Cavia porcellus, UniProt Q9JI35)
Assay: H3 Receptor Binding Assay
Set-up: species or system guinea pig

CN1CCC(Cc2c[nH]cn2)CC1 [Compound 7.2]
Ki: 0.8 nM

CN1CCC(=Cc2c[nH]cn2)CC1 [Compound 9.1]
Ki: 12 nM
